Source: patent US9102636B2, “Analgesic compounds, compositions, and uses thereof” (Galleon Pharmaceuticals, Inc., priority 2010, dated 2015)

Key:
Type in all cases: in vivo
[1] = test system: fentanyl analgesia / hyperalgesia; assay: Duration of action of a single IV dose on repeated fentanyl doses; conditions: rat
[2] = test system: fentanyl analgesia (Hargreaves); assay: Opioid dose-sparing (simulated patient controlled analgesia), Hargreaves; conditions: rat, 25 mg/kg IV 15 min before fentanyl, five hourly fentanyl doses, FIG. 3
[3] = test system: fentanyl analgesia (tail flick); assay: Preservation of fentanyl analgesia in rat tail flick assay; conditions: compound IV 15 min before fentanyl 25 μg/kg, FIG. 1

CC1(C)SC(Nc2ccccc2O)=N[C@@H]1C(=O)O [Compound 2, (R)-2-(2-hydroxyphenylamino)-thiazoline-5,5-dimethyl-4-carboxylic acid]
preservation of fentanyl analgesia (tolerance, hyperalgesia) ([1]; fentanyl 25 μg/kg daily for four days, FIG. 6): preserves fentanyl analgesia by reducing tolerance and inhibiting hyperalgesia
preservation of fentanyl analgesia / hyperalgesia after single dose ([1]; four doses of fentanyl over two days, FIG. 5): preserves fentanyl analgesia and inhibits development of hyperalgesia even after four doses of fentanyl
preservation of fentanyl analgesia / hyperalgesia after single dose ([1]; three doses of fentanyl 25 μg/kg separated by 2.5 hours, FIG. 4): preserves fentanyl analgesia and blocks hyperalgesia even after three doses of fentanyl
fentanyl dose-sparing, Hargreaves thermal endpoints ([2]; 25 mg/kg): Significant levels of analgesia were maintained
fentanyl dose-sparing, Hargreaves thermal endpoints ([2]; listed as compound 2, 25 mg/kg): preserves fentanyl analgesia, allowing smaller doses of fentanyl to elicit full or significant analgesia
preservation of fentanyl analgesia, tail flick [3]: dose-dependently preserves fentanyl analgesia
